Molecular target: Peroxisome proliferator-activated receptor gamma (Homo sapiens, UniProt P37231)
Test: In vitro binding affinity towards human peroxisome proliferator activated receptor gamma (PPAR gamma)

The chains behind the UniProt entries cited, without tags or fusion partners. Where a name states a change or a piece, a line headed by the entry shows the natural chain unless it says otherwise.
UniProt P37231: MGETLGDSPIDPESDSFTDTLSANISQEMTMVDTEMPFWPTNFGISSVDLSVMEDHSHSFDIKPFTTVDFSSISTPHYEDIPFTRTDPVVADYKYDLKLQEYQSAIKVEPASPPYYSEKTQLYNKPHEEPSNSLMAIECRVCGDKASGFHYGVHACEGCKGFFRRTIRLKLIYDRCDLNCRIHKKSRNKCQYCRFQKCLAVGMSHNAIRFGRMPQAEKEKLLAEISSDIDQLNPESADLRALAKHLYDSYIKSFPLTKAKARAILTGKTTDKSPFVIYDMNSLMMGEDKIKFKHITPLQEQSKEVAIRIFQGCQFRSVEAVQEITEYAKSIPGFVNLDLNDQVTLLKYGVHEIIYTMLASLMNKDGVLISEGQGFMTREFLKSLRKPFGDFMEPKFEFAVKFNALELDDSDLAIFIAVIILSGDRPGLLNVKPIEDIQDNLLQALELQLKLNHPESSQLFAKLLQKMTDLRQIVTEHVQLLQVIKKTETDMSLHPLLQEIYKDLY

Ki: 32 nM
SMILES: CCCc1c(OCCCOc2ccc(CC(=O)O)cc2)ccc2c(-c3ccccc3)noc12

From ChEMBL document CHEMBL1136629, “Amphipathic 3-phenyl-7-propylbenzisoxazoles; human pPaR gamma, delta and alpha agonists” (Bioorg Med Chem Lett, 2003)
